Biological target: p53-MDM2 interaction (Homo sapiens, UniProt Q00987)
Assay: HTRF p53-MDM2 interaction counter assay
Assay type: binding

Sequences of proteins named here, by UniProt entry; tags and fusion partners are left off. A change or cut given only in a name is not applied to a line headed by its entry.
UniProt Q00987: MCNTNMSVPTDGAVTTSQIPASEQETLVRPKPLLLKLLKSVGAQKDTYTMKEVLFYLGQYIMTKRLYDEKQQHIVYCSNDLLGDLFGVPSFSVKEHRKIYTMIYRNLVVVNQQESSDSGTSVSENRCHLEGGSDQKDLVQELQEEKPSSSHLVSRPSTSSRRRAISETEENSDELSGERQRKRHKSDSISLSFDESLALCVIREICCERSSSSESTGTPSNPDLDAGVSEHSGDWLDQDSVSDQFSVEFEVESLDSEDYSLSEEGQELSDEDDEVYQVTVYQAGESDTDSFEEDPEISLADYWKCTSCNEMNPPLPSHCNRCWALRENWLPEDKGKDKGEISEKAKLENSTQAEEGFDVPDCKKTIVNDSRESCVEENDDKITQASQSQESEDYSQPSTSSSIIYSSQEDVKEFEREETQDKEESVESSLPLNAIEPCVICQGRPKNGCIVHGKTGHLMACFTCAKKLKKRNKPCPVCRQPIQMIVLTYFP

Nutlin
effect on p53-MDM2 interaction: inhibited

Reference: PMC6992764 (Nature Communications, 2020)
